In patent US20040023884A1, “Biologically active peptides from functional domains of bactericidal/permeability-increasing protein and uses thereof” (priority 1993, published 2004):
Converted amounts (≈) assume the structure as drawn.

Tests used:
Staphylococcus aureus = assay: Radial diffusion bactericidal assay, Staphylococcus aureus; format: cell-based; settings: PROBIT analysis
[1] = system: E. coli 0111:B4 (smooth) bacteria; assay: Radial diffusion bactericidal assay, E. coli 0111:B4; format: cell-based; settings: PROBIT analysis
[2] = system: rough mutant E. coli J5 bacteria; assay: Radial diffusion bactericidal assay, E. coli J5; format: cell-based; settings: PROBIT analysis
Method: BPI proteolytic fragments produced according to Example 1 were screened for bactericidal effects using rough mutant E. coli J5 bacteria in a radial diffusion assay. Specifically, an overnight culture of E. coli J5 was diluted 1:50 into fresh tryptic soy broth and incubated for 3 hours at 37° C. to attain log phase growth of the culture. Bacteria were then pelleted at 3,000 rpm for 5 minutes in a Sorvall RT6000B centrifuge (Sorvall Instruments, Newton, Conn.). 5 mL of 10 mM sodium phosphate buffer (pH 7.4) was added and the preparation was re-pelleted. […] The bacteria were diluted to 4×10^6 CFU/mL in 10 mL of molten underlayer agarose (at approximately 45° C.) and inverted repeatedly to mix in 15 mL polypropylene tubes conventionally used for this purpose.
The entire contents of such tubes were then poured into a level square petri dish and distributed evenly by rocking the dish side-to-side. […] A series of wells were then punched into the hardened agarose using a sterile 3 mm punch attached to a vacuum apparatus. The punch was sterilized with 100% alcohol and allowed to air dry prior to use to avoid contaminating the bacterial culture.
5 or 10 μL of each of the BPI fragments were carefully pipetted into each well. As a negative control, dilution buffer (pH 8.3) was added to a separate well, and rBPI23 at concentrations of 5 μg/mL and 1 μg/mL were also added as positive controls. Each plate was incubated at 37° C. for 3 hours, and then 10 mL of molten overlayer agarose (at approximately 45° C.) was added into the level petri dish, allowed to harden and incubated overnight at 37° C. […] The bacterial zones were measured with a micrometer.

[3] = 3H-heparin binding assay (affinity and capacity); settings: for Heparin Capacity: heparin bound at saturation
Method: Briefly, each fragment was added to wells of a 96-well microtiter plate having a polyvinylidene difluoride membrane (Immunobilon-P, Millipore, Bedford, Mass.) disposed at the bottom of the wells. […] Positive control wells contained varying amounts of rBPI23. […] DuPont-NEN, Wilmington, Del.) were made in the blocking buffer and incubated in the BPI peptide-containing wells for one hour at 4° C. The unbound heparin was aspirated and the wells were washed three times with blocking buffer, dried and removed for quantitation in a liquid scintillation counter (Model 1217, LKB, Gaithersburg, Md.). Although BSA in the blocking buffer did show a low affinity and capacity to bind heparin, this was considered physiologically irrelevant and the background was routinely subtracted from the test compound signal.

RAW 264.7 cells = assay: LPS neutralization cellular proliferation assay, RAW 264.7 cells; format: cell-based, mouse
Method: In this assay, mouse RAW 264.7 cells (ATCC Accession No. T1B71), maintained in RPMI 1640 media (GIBCO), supplemented with 10 mM HEPES buffer (pH 7.4), 2 mM L-glutamine, penicillin (100U/mL), streptomcin (100 μg/mL), 0.075% sodium bicarbonate, […] 2-mercaptoethanol and 10% fetal bovine serum (Hyclone, Inc., Logan, Utah), were first induced by incubation in the presence of 50U/mL recombinant mouse y-interferon (Genzyme, Cambridge, Mass.) for 24 h prior to assay. Induced cells were then mechanically collected and centrifuged at 500×g at 4° C. and then resuspended in 50 mL RPMI 1640 media (without supplements), re-centrifuged and again resuspended in RPMI 1640 media (without supplements). The cells were counted and their concentration adjusted to 2×10^5 cells/mL and 100 μL aliquots were added to each well of a 96-well microtitre plate. The cells were then incubated for about 15 hours with E. coli O113 LPS (Control Standard. Assoc. of Cape Cod. Woods Hole, Mass.), which was added in 100 μL/well aliquots at a concentration of […] in serum-free RPMI 1640 media (this concentration being the result of titration experiments in which LPS concentration was varied between 50 pg/mL and 100 ng/mL). This incubation was performed in the absence or presence of BPI functional domain peptides in varying concentrations between 25 ng/mL and 50 μg/mL. Recombinant human BPI was used as a positive control at a concentration of 1 μg/mL. Cell proliferation was quantitatively measured by the addition of 1 μCi/well [^3H]-thymidine 5 hours after the time of initiation of the assay. After the 15-hour incubation, labeled cells were harvested onto glass fiber filters with a cell harvester (Inotech Biosystems, EQ-384, Sample Processing and Filter Counting System, Lansing, Mich.).

Candida albicans = format: cell-based
C. albicans = assay: Radial diffusion fungicidal assay, Candida albicans; format: cell-based

| SMILES | pmol added to well to achieve a 30 mm^2 bactericidal zone, S. aureus (Staphylococcus aureus) | pmol added to well to achieve a 30 mm^2 bactericidal zone, E. coli O111:B4 [1] | pmol added to well to achieve a 30 mm^2 bactericidal zone, E. coli J5 [2] | Kd [3] [nM] | Heparin Capacity [3] [ng] | EC50 (peptide concentration at which the growth inhibitory effect of LPS was reversed by 50%) (RAW 264.7 cells) [µg/mL] | IC50 (peptide concentration at which RAW cell growth was inhibited by 50%) (RAW 264.7 cells) | MIC C. alb (Candida albicans) [µg/mL] | C. albicans: pmol required for 30 mm^2 zone (C. albicans) [pmol] |
| --- | --- | --- | --- | --- | --- | --- | --- | --- | --- |
| CC[C@H](C)[C@H](N)C(=O)N[C@@H](CCCCN)C(=O)N[C@H](C(=O)N[C@@H](CO)C(=O)NCC(=O)N[C@@H](CCCCN)C(=O)N[C@@H](Cc1cccc2ccccc12)C(=O)N[C@@H](CCCCN)C(=O)N[C@@H](C)C(=O)N[C@@H](Cc1ccccc1)C(=O)N[C@@H](Cc1ccccc1)C(=O)N[C@@H](CCCNC(=N)N)C(=O)N[C@@H](Cc1ccccc1)C(=O)N[C@@H](CC(C)C)C(=O)N[C@@H](CCCCN)C(=O)O)[C@@H](C)CC [BPI.90] | 39,585.98 pmol | 1,765.50 pmol | 83.11 pmol | 1230 | 274.8 |  |  |  |  |
| CC[C@H](C)[C@H](N)C(=O)N[C@@H](CCCCN)C(=O)N[C@H](C(=O)N[C@@H](CO)C(=O)NCC(=O)N[C@@H](CCCCN)C(=O)N[C@@H](Cc1cccc2ccccc12)C(=O)N[C@@H](CCCCN)C(=O)N[C@@H](C)C(=O)N[C@@H](CCC(N)=O)C(=O)N[C@@H](Cc1ccccc1)C(=O)N[C@@H](CCCNC(=N)N)C(=O)N[C@@H](Cc1ccccc1)C(=O)N[C@@H](CC(C)C)C(=O)N[C@@H](CCCCN)C(=O)O)[C@@H](C)CC [BPI.84] | 9,677.46 pmol | 46,130.96 pmol | 11.63 pmol | 1000 | 329.2 | 57 ± 28 | — (No proliferation decrease up to 50 μg/ml) |  |  |
| CC[C@H](C)[C@H](NC(=O)[C@H](CC(C)C)NC(=O)[C@H](CCCCN)NC(=O)CNC(=O)[C@@H](NC(=O)[C@H](CCCCN)NC(=O)[C@H](CO)NC(=O)[C@@H](N)CCCCN)C(C)C)C(=O)N[C@@H](CCC(N)=O)C(=O)N[C@@H](CC(C)C)C(=O)N1CCC[C@H]1C(=O)N[C@@H](Cc1c[nH]cn1)C(=O)N[C@@H](CCCCN)C(=O)N[C@@H](CCCCN)C(=O)O [BPI.135] | b (no detectable activity up to 5 μg/well) | 3,321.69 pmol | 1,052.02 pmol |  |  |  |  | 6.25 (≈ 3.9 µM) | 427.81 |
| CC[C@H](C)[C@H](N)C(=O)N[C@@H](CCCCN)C(=O)N[C@H](C(=O)N[C@@H](CO)C(=O)NCC(=O)N[C@@H](CCCCN)C(=O)N[C@@H](Cc1cccc2ccccc12)C(=O)N[C@@H](CCCCN)C(=O)N[C@@H](C)C(=O)N[C@@H](Cc1ccccc1)C(=O)N[C@@H](CCCCN)C(=O)N[C@@H](CCCNC(=N)N)C(=O)N[C@@H](Cc1ccccc1)C(=O)N[C@@H](CC(C)C)C(=O)N[C@@H](CCCCN)C(=O)O)[C@@H](C)CC [BPI.89] | 7,357.20 pmol | 4,210.70 pmol | 229.09 pmol | 1200 | 252.8 | >50 | 11 ± 0.3 µg/mL (≈ 5.91 µM) |  |  |
| CC[C@H](C)[C@H](N)C(=O)N[C@@H](CCCCN)C(=O)N[C@H](C(=O)N[C@@H](CO)C(=O)NCC(=O)N[C@@H](CCCCN)C(=O)N[C@@H](Cc1c[nH]c2ccccc12)C(=O)N[C@@H](CCCCN)C(=O)N[C@@H](C)C(=O)N[C@@H](CCC(=O)O)C(=O)N[C@@H](CCCCN)C(=O)N[C@@H](CCCCN)C(=O)N[C@@H](Cc1ccccc1)C(=O)N[C@@H](CC(C)C)C(=O)N[C@@H](CCCCN)C(=O)O)[C@@H](C)CC [BPI.147] | b (no detectable activity up to 5 μg/well) | b (no detectable activity up to 5 μg/well) | 8,385.00 pmol |  |  |  |  | 100.00 (≈ 55.4 µM) | >2558.17 |
| CSCC[C@@H]1NC(=O)[C@H](CCCCN)NC(=O)[C@H](CC(C)C)NC(=O)[C@H](Cc2ccccc2)NC(=O)[C@H](CCCNC(=N)N)NC(=O)[C@H](CCCCN)NC(=O)[C@H](CCC(N)=O)NC(=O)[C@H](C)NC(=O)[C@H](CCCCN)NC(=O)[C@H](Cc2c[nH]c3ccccc23)NC(=O)[C@H](CCCCN)NC(=O)[C@@H](N)CSSC[C@@H](C(N)=O)NC(=O)[C@H](CO)NC1=O [BPI.168] | b (no detectable activity up to 5 μg/well) | 5,158.82 pmol | 1,460.98 pmol |  |  |  |  | >100.00 |  |
| CC[C@H](C)[C@H](N)C(=O)N[C@@H](CCCCN)C(=O)N[C@H](C(=O)N[C@@H](CO)C(=O)NCC(=O)N[C@@H](CCCCN)C(=O)N[C@@H](Cc1c[nH]c2ccccc12)C(=O)N[C@@H](CCCCN)C(=O)N[C@@H](C)C(=O)N[C@@H](CCC(N)=O)C(=O)N[C@@H](Cc1cccc2ccccc12)C(=O)N[C@@H](CCCNC(=N)N)C(=O)N[C@@H](Cc1ccccc1)C(=O)N[C@@H](CC(C)C)C(=O)N[C@@H](CCCCN)C(=O)O)[C@@H](C)CC [BPI.80] | 2,537.82 pmol | b (no detectable activity up to 5 μg/well) | 655.37 pmol | 136 | 210.3 | 35 ± 36 | >50 µg/mL |  |  |
